Reference: PubChem BioAssay (NCI)
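Cells were grown in 96-well plates and exposed to each compound for 48 hours at five concentrations; endpoints were interpolated linearly between bracketing concentrations, or set to the highest concentration if not reached. The concentration for full growth arrest is given as TGI.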

Columns and labels:
Assay in all cases: DTP human tumour cell line panel, 48 h
NCI-H460 lung = system: NCI-H460 lung
HL-60(TB) leukemia = system: HL-60(TB) leukemia
SNB-19 CNS = system: SNB-19 CNS
UACC-62 melanoma = system: UACC-62 melanoma
ACHN renal = system: ACHN renal
OVCAR-5 ovarian = system: OVCAR-5 ovarian
PC-3 prostate = system: PC-3 prostate
NCI/ADR-RES ovarian = system: NCI/ADR-RES ovarian
HCT-15 colon = system: HCT-15 colon
M14 melanoma = system: M14 melanoma
K-562 leukemia = system: K-562 leukemia
HOP-62 NSCLC = system: HOP-62 NSCLC
SK-MEL-28 melanoma = system: SK-MEL-28 melanoma
CAKI-1 renal = system: CAKI-1 renal
T-47D breast = system: T-47D breast
A549 NSCLC = system: A549 NSCLC
DU-145 prostate = system: DU-145 prostate
UACC-257 melanoma = system: UACC-257 melanoma
RXF 393 renal = system: RXF 393 renal
TK-10 renal = system: TK-10 renal
MDA-MB-435 = system: MDA-MB-435
MDA-N = system: MDA-N
IGROV1 ovarian = system: IGROV1 ovarian
SF-539 CNS = system: SF-539 CNS
LOX IMVI melanoma = system: LOX IMVI melanoma
HS 578T breast = system: HS 578T breast
OVCAR-3 ovarian = system: OVCAR-3 ovarian
MALME-3M melanoma = system: MALME-3M melanoma
SK-MEL-5 melanoma = system: SK-MEL-5 melanoma
SK-OV-3 ovarian = system: SK-OV-3 ovarian
MOLT-4 leukemia = system: MOLT-4 leukemia
NCI-H322M lung = system: NCI-H322M lung
KM12 colon = system: KM12 colon
SN12C renal = system: SN12C renal
NCI-H23 lung = system: NCI-H23 lung
MDA-MB-231 breast = system: MDA-MB-231 breast
786-0 renal = system: 786-0 renal
SF-268 CNS = system: SF-268 CNS
SK-MEL-2 melanoma = system: SK-MEL-2 melanoma
OVCAR-4 ovarian = system: OVCAR-4 ovarian
HCC-2998 colon = system: HCC-2998 colon
NCI-H226 lung = system: NCI-H226 lung
NCI-H522 lung = system: NCI-H522 lung
HT29 colon = system: HT29 colon
SW-620 colon = system: SW-620 colon
CCRF-CEM leukemia = system: CCRF-CEM leukemia
SF-295 CNS = system: SF-295 CNS
COLO 205 colon = system: COLO 205 colon
RPMI-8226 leukemia = system: RPMI-8226 leukemia
EKVX NSCLC = system: EKVX NSCLC
A498 renal = system: A498 renal
SNB-75 CNS = system: SNB-75 CNS
U251 CNS = system: U251 CNS
HCT-116 colon = system: HCT-116 colon

Measured: TGI

CCOP1(=O)N=C(NC2=NC(C(F)(F)F)(C(F)(F)F)OC(C(F)(F)F)(C(F)(F)F)O2)N(C)C1(C)C (centres undefined)
> 100 µM: all assays above
